Results: patent US4789630A, “Ionic compounds containing the cationic meriquinone of a benzidine” (Cetus Corporation, priority 1986, dated 1988)

How the values were obtained:
[1] = pH 5
[2] = Experimental: Stock HRP solutions were prepared in 0.10M NaCl, 1.0 mM Na phosphate, pH 6.0 to be 22 ng/ml or 0.43 ng/ml in HRP, shortly before assay, HRP-catalyzed oxidation of TMB by H2 O2 was initiated by adding 20 or 2.0 μl of […] or 20 or 10 μl of 0.43 ng/ml HRP to 1.00 ml of the assay solution at 25° C. […] At the end of each reaction interval, replicate 100 μl volumes of reaction mixture were spotted on a Nuclepore polycarbonate filter (3 μm pore size) and dried by gentle suction to give deposits 3-4 mm in diameter.
The initial velocity was transformed from units of absorbance per time to reciprocal time (turnover number) by dividing by the meriquinone extinction coefficient, 3.9×10^4 M^-1 cm^-1, and by the HRP concentration. […] The transition time is the time to crystal nucleation.

Solubility Ratio: 25.2 C/0.0 C [1]: 5.6
Molar Solubility in 0.1 M Anion ([1]; sodium acetate, 10% ethanol): 7 × 10^-9 Molar
Substance: Fumarate
stability of blue deposits on filter [2]: stable during standing for over a week at room temperature
